From PubChem BioAssay
TDP1 cell noCPT: qHTS for Inhibitors of human tyrosyl-DNA phosphodiesterase 1 (TDP1): qHTS in cells in absence of CPT. DT40 Tdp1-/- hTDP1 cells, no CPT, ATP luminescence, 48 h. Potency, µM (series often up to 46.2 µM), actives largely listed as inhibitors. 420,000 compounds, 15% hits. AID 686978, 2013; also: nearly all actives have a fitted effect of over 55% in size
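A cellular qHTS used chicken DT40 cells lacking endogenous Tdp1 but carrying stably transfected human TDP1. Compounds were applied without camptothecin, and cell growth kinetics were judged by ATP-dependent luminescence after ≥48 hr.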
uPA surface inh: blocks generation of uPA at the cell surface; 330,000 compounds, 0.31% hits; AID 540303; cell surface uPA generation assay, qHTS; Potency, µM (series often up to 38.3 µM), usual class: inhibitors; active = well fitted inhibition curve with a large enough effect; inconclusive = small, poorly fitted or top-dose-only effect; inactive = no such curve, though single readings can be large or run the other way; tested in mouse RAW 264.7 cells; also: nearly all actives have a fitted effect of over 55% in size
TDP1 block: inhibitors of human tyrosyl-DNA phosphodiesterase TDP1. 350,000 compounds, 0.28% hits. Potency, µM (series often up to 130 µM), usual class: inhibitors. recombinant TDP1, AlphaScreen DNA substrate cleavage. Q9NUW8; also: nearly all actives have a fitted effect of over 40% in size
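Tdp1 1 nM final; 15 min RT w/ cpd; substrate 15 nM, 5 min; beads 10 ug/ml, 10 min; AlphaScreen read. Neg ctrl: no enzyme.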
TDP1 cell CPT: growth inhibition of DT40 Tdp1-/-;hTDP1 cells with camptothecin (screen for TDP1 inhibitors). chicken DT40 Tdp1-/-;hTDP1 cells + 20 nM CPT, ATP luminescence, 48 h. Potency, µM (doses to about 46.2 µM), most hits filed as inhibitors. 420,000 compounds, 12% hits; also: nearly all actives have a fitted effect of over 55% in size
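Cell growth measured by CellTiter-Glo luminescence after a minimum 48 h, 37 C compound exposure with 20 nM CPT in Tdp1-knockout DT40 cells stably expressing hTDP1, seeded 400/well; qHTS titration format.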
miR-21 reporter: raises the signal of a miR-21 reporter. HeLa miR-21 FLuc reporter, luciferase, 48 h. 340,000 tested, under 10 active. Potency, µM (highest dose often 38.3 µM); active = well fitted rising curve with a large enough effect; inconclusive = small, poorly fitted or top-dose-only effect; inactive = no such curve, though single readings can be large or run the other way;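 note: miR-21 action dims this reporter so a rising signal means less miR-21 action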
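HeLa miR-21-FLuc reporter line, endogenous miR-21; 2000 cells/well in DMEM/10% FBS; compound titration up to ~40uM final, 48 h, 37 degree Celsius; luciferase detection reagent, 15 min lysis, CCD luminescence.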
Large screens that a line does not name were inactive. Shown are actives, neighbours in structure and some others; about 16% of the full set was active somewhere. Unless noted, calls follow the shape of the dose curve; as a rule, active = well fitted curve in the direction sought with a large enough effect; inconclusive = small, poorly fitted or top-dose-only effect, or another doubt; inactive = no such curve, though single readings can be large; an effect the other way counts as inactive or inconclusive.

Cc1ccc2c(Sc3ccc(Cl)cc3)c(C(=O)N3CCC(C)CC3)[nH]c2c1	TDP1 cell noCPT 21µM, TDP1 cell CPT 16µM (no result: uPA surface inh)
O=C(NCCc1ccccc1)c1cc(Sc2ccc(F)cc2F)nc2ccccc12	TDP1 cell noCPT inconclusive, TDP1 cell CPT inconclusive (no result: uPA surface inh)
O=C(NCc1cccnc1)c1cc(Sc2ccc(F)cc2F)nc2ccccc12	TDP1 cell noCPT 21µM, TDP1 cell CPT 23µM, miR-21 reporter inconclusive
O=C(CCCCCN1C(=O)[C@@H]2Cc3ccccc3CN2C1=O)Nc1cccc(F)c1	TDP1 cell noCPT 15µM, TDP1 cell CPT inconclusive
Cc1cccc(NC(=O)CCCCCN2C(=O)[C@@H]3Cc4ccccc4CN3C2=O)c1	TDP1 cell noCPT inconclusive
O=C(NC1CC1)C1=C[C@@H](c2c[nH]c3ccccc23)C[C@@H](OCCCCO)O1	none
COc1ccc(C)cc1S(=O)(=O)NCC(c1ccc(N(C)C)cc1)N1CCc2ccccc21 (configuration not stated)	TDP1 cell noCPT inconclusive, TDP1 cell CPT inconclusive (no result: uPA surface inh)
Cc1cc(C)c(S(=O)(=O)NCC(c2ccc(N(C)C)cc2)N2CCc3ccccc32)c(C)c1 (configuration not stated)	TDP1 cell noCPT inconclusive, TDP1 cell CPT 18µM (no result: uPA surface inh)
COc1cccc(C(=O)NCC(c2ccc(N(C)C)cc2)N2CCc3ccccc32)c1OC (configuration not stated)	TDP1 cell noCPT 15µM, TDP1 cell CPT 15µM (no result: uPA surface inh)
CN(C)c1ccc(C(CNC(=O)c2ccccc2F)N2CCc3ccccc32)cc1 (configuration not stated)	TDP1 cell noCPT inconclusive, TDP1 cell CPT 10µM (no result: uPA surface inh)
COc1cccc(C(=O)NCC(c2ccc(N(C)C)cc2)N2CCc3ccccc32)c1 (configuration not stated)	TDP1 cell noCPT inconclusive, TDP1 cell CPT 8.2µM (no result: uPA surface inh)
CN(C)c1ccc(C(CNS(=O)(=O)c2ccc(F)cc2)N2CCc3ccccc32)cc1 (configuration not stated)	TDP1 cell noCPT inconclusive, TDP1 cell CPT inconclusive (no result: uPA surface inh)
COc1cccc(C(=O)NCCS(=O)(=O)N2CCc3ccccc3C2)c1	none (no result: TDP1 block, miR-21 reporter)
CCC1CN(C(=O)Nc2cccc3c2CCCC3)c2cc(C)ccc2O1 (configuration not stated)	TDP1 cell noCPT inconclusive, TDP1 cell CPT inconclusive (no result: uPA surface inh)
Fc1ccc(CNCc2ccccc2Cl)cc1	none
COc1ccc(NC(=O)C(NS(=O)(=O)c2cccc3nsnc23)C(C)C)cc1OC (configuration not stated)	none (no result: uPA surface inh)
CC(Oc1ccc2c3c(c(=O)oc2c1)CCC3)C(=O)NCCCn1ccnc1 (configuration not stated)	none
COc1cc(C(=O)NCC(c2ccc(N(C)C)cc2)N2CCc3ccccc32)cc(OC)c1OC (configuration not stated)	TDP1 cell noCPT 18µM, TDP1 cell CPT 7.3µM (no result: uPA surface inh)
COc1ccc(C(=O)NCC(c2cccs2)N2CCc3ccccc32)c(OC)c1 (configuration not stated)	TDP1 cell noCPT 15µM, uPA surface inh inconclusive, TDP1 cell CPT inconclusive (no result: miR-21 reporter)
O=S(=O)(NCC(c1ccco1)N1CCc2ccccc21)c1ccccc1 (configuration not stated)	TDP1 cell noCPT 18µM, TDP1 cell CPT 23µM (no result: miR-21 reporter)
COc1ccc(C(=O)NCC(c2ccco2)N2CCc3ccccc32)cc1 (configuration not stated)	TDP1 cell noCPT 2.6µM, TDP1 cell CPT 3.7µM (no result: TDP1 block, miR-21 reporter)
COc1ccc(C(=O)NCC(c2ccco2)N2CCc3ccccc3C2)cc1 (configuration not stated)	TDP1 cell noCPT inconclusive, TDP1 cell CPT inconclusive (no result: miR-21 reporter)
C=CCn1cnc2c(oc3ccccc32)c1=O	none (no result: TDP1 block)
COc1ccc(C(=O)NCC(c2ccc(N(C)C)cc2)N2CCc3ccccc32)cc1OC (configuration not stated)	TDP1 cell noCPT 6.5µM, TDP1 cell CPT 5.2µM (no result: uPA surface inh)
CC(=O)NCCC(=O)N1CCCC(C(=O)c2ccc3c4c(cccc24)CC3)C1 (configuration not stated)	TDP1 cell noCPT inconclusive, TDP1 cell CPT inconclusive
CN1CCC(C(=O)N2CCCC(C(=O)c3ccc4c5c(cccc35)CC4)C2)CC1 (configuration not stated)	TDP1 cell noCPT 18µM, uPA surface inh inconclusive, TDP1 cell CPT inconclusive (no result: TDP1 block)
O=C(c1ccc2c3c(cccc13)CC2)C1CCCN(Cc2cccnc2)C1 (configuration not stated)	TDP1 cell noCPT inconclusive
CC(=O)N1CCCC(C(=O)c2ccc3c4c(cccc24)CC3)C1 (configuration not stated)	TDP1 cell noCPT 23µM
O=C(c1cccc2ccccc12)C1CCCN(C(=O)C2CCOCC2)C1 (configuration not stated)	TDP1 cell CPT inconclusive (no result: TDP1 block)
O=C(c1ccc2c3c(cccc13)CC2)C1CCCN(C(=O)c2cccnc2)C1 (configuration not stated)	TDP1 cell noCPT 21µM, TDP1 cell CPT 12µM
O=C(NNc1nc(-c2ccccc2)cs1)c1ccco1	TDP1 cell noCPT 16µM, TDP1 cell CPT inconclusive
O=C(CN1CCN(c2nc(-c3ccccc3)cs2)CC1)NNC(=O)c1ccco1	none
O=C(NNc1nc(-c2ccc(Cl)cc2)cs1)c1ccco1	TDP1 cell noCPT 10µM, TDP1 cell CPT 18µM
O=c1c(-c2ccccc2)nc2cncnc2n1Cc1ccccc1Cl	none (no result: uPA surface inh, TDP1 block, miR-21 reporter)
O=C(C1CCN(CCCc2ccccc2)CC1)N(CCc1ccccc1)Cc1ccccc1	TDP1 cell noCPT 15µM, TDP1 cell CPT inconclusive
O=C(C1CCN(CC2CC=CCC2)CC1)N(CCc1ccccc1)Cc1ccccc1 (configuration not stated)	none
Nc1nc(SCC(=O)N2CCOCC2)[nH]c(=O)c1-c1ccccc1	none
CCOC(=O)N1CCN(C(=O)CSc2nc3c(cnn3-c3ccccc3)c(=O)[nH]2)CC1	TDP1 cell noCPT 23µM, TDP1 cell CPT inconclusive
CCCCCSc1nc2c(cnn2-c2ccc(F)cc2)c(=O)[nH]1	TDP1 cell noCPT 23µM, TDP1 cell CPT inconclusive (no result: TDP1 block)
O=c1[nH]c(CSc2ncccn2)nc2c1cnn2-c1ccccc1	none
Cc1ccc(-n2ncc3c(=O)[nH]c(SCC(=O)N4CCN(c5ccccc5)CC4)nc32)cc1	TDP1 cell noCPT inconclusive, TDP1 cell CPT inconclusive
O=c1[nH]c(CSc2nc3ccccc3[nH]2)nc2c1cnn2-c1ccccc1	TDP1 cell noCPT 21µM, TDP1 cell CPT 26µM
Nc1nc(SCC(=O)N2CCCC2)[nH]c(=O)c1-c1ccccc1	TDP1 cell noCPT 26µM, TDP1 cell CPT inconclusive
CCCCSc1nc(O)c(Cc2ccccc2)c(=O)[nH]1	none
COc1ccc(NC(=O)C(=O)NNC(=O)c2ccc(Cl)cc2Cl)cc1	none
Cc1ccc2nc(SCc3nc4cc(Cl)ccc4c(=O)[nH]3)[nH]c2c1	TDP1 cell noCPT inconclusive (no result: TDP1 block)
